According to PubChem BioAssay (Tox21):
The entries are a selection whose mix differs from that of the whole data set. Results filed as inconclusive are left out. The source made the active and inactive calls. Unless noted, calls come from the whole dose curve.

Chains of the proteins cited; added tags and fusions are not shown.
UniProt P30968, whole entry: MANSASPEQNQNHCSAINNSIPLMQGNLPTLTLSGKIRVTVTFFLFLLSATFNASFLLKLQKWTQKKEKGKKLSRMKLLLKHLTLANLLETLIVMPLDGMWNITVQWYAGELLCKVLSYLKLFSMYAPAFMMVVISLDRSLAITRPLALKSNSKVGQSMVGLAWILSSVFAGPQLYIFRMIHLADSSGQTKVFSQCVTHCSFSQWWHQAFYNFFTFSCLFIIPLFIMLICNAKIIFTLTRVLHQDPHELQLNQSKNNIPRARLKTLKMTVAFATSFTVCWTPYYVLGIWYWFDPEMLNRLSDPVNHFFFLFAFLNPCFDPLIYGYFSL
UniProt Q969F8, whole entry: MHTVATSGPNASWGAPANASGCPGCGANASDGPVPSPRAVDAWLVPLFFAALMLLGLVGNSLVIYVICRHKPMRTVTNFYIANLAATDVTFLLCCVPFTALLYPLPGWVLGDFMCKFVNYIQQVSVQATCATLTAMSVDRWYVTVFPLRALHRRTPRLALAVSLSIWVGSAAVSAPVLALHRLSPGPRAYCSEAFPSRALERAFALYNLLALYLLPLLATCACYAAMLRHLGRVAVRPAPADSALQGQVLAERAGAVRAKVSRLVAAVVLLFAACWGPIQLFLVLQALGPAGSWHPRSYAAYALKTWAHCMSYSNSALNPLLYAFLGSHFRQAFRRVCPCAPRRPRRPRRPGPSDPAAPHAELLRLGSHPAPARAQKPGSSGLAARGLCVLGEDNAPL
UniProt P28223, whole entry: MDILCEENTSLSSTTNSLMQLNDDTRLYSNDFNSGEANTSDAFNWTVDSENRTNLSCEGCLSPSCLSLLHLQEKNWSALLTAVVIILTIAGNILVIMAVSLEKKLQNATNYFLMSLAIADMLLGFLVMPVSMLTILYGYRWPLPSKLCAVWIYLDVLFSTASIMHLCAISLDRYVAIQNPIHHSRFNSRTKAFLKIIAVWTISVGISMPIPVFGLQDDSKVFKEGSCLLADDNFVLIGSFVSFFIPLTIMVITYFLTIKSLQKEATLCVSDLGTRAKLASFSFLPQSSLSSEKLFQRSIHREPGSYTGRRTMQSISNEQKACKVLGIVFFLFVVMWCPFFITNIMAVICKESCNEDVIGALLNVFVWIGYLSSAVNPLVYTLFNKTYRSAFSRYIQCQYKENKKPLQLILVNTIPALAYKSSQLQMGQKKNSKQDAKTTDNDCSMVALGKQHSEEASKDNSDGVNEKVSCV
UniProt P11229, whole entry: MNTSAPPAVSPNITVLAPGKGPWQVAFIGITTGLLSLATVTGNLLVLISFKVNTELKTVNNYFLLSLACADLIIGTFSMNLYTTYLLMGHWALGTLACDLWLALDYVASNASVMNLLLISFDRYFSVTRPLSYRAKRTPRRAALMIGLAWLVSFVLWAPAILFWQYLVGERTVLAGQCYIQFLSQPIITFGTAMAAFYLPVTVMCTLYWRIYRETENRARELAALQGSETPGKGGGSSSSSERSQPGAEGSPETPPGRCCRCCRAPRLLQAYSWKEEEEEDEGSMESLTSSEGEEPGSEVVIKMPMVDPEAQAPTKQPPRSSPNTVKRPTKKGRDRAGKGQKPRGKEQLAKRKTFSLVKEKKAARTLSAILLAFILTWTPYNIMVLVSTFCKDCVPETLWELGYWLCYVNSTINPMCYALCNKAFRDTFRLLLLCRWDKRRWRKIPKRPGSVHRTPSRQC
UniProt P07550, whole entry: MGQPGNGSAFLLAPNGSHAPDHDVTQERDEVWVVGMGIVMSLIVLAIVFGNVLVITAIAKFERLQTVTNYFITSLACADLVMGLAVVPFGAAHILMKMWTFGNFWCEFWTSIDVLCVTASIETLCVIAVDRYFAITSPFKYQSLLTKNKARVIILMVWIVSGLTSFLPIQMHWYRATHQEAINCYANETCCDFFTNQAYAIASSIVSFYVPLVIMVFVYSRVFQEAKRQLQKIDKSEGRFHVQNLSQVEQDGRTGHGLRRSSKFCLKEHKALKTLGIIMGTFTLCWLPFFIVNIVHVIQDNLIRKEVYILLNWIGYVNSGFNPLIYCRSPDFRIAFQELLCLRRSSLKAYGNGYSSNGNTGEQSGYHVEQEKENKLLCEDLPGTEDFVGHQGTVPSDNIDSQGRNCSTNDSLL
UniProt P14416, whole entry: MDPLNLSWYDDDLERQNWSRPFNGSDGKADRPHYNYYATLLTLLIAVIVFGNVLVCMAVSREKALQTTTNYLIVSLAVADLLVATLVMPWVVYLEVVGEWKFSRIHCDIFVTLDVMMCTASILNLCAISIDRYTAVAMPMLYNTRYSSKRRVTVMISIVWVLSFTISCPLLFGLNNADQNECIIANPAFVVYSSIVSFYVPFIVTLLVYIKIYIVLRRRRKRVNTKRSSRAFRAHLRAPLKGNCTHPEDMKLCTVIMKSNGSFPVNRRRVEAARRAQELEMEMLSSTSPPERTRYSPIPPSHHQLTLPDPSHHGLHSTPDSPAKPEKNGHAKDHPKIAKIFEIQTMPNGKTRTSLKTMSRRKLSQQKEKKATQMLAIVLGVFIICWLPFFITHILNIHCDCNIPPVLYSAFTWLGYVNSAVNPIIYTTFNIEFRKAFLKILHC

Assays:
[1] = Nuclear factor erythroid 2-related factor 2/antioxidant responsive element (Nrf2/ARE) small molecule agonists: qHTS cell viability counter screen in human keratinocytes (AID 1919968; active = well fitted curve in the direction sought with a large enough effect in the repeat runs; an effect the other way counts as inactive or inconclusive; note: nearly all actives have a fitted effect of over 55% in size); conditions: KeratinoSens HaCaT ARE cells viability, CellTiter-Fluor, 24 h; at 92.4 µM (top of the series) unless noted
Outline: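 KeratinoSens HaCaT cells, 1,500/well, preincubated 5 h, then exposed to compounds in DMSO for 23 h at 37 C/5% CO2. Viability read as CellTiter-Fluor fluorescence after 1 h, in the same wells as the ARE-luciferase read.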

[2] = Nuclear factor erythroid 2-related factor 2/antioxidant responsive element (Nrf2/ARE) small molecule agonists: luciferase reporter gene qHTS assay in human keratinocytes (AID 1919969); conditions: KeratinoSens HaCaT ARE-luciferase, luminescence, 24 h; at 92.4 µM (top of the series) unless noted; note: nearly all actives have a fitted effect of over 35% in size
From the text: National Center for Advancing Translational Sciences [NCATS]
Division of Preclinical Innovation [DPI]
U.S. Environmental Protection Agency [EPA]
National Institutes of Environmental Health Sciences [NIEHS]
National Toxicology Program [NTP]
U.S. Food and Drug Administration [FDA]
Oxidative stress has been implicated in the pathogenesis of a variety of diseases ranging from cancer to neurodegeneration. The antioxidant response element (ARE) signaling pathway plays an important role in the amelioration of oxidative stress. The KeratinoSens (Givaudan, Switzerland) is an in vitro test method which quantifies luciferase induction as a measure of activation of Keap1-Nrf2-antioxidationt/electrophile response element (ARE) dependant pathway in HaCaT human keratinocytes stably transfected with a selectable plasmid. The KeratinoSens assay is a cell-based assay with a reporter cell line to detect potential skin sensitizers by their ability to induce the Nrf2/ARE-response. The activation of the report gene under culture conditions can be detected by ONE-Glo Luciferase Assay System (Promega, Madison, WI). This cell line has been used to screen the Tox21 10K compound library to identify agonists that induce oxidative stress. The cytotoxicity of the Tox21 compound library against the KS-ARE cell line was tested in parallel by measuring the cell viability using CellTiter- Fluor assay system (Promega, Madison, WI) in the same wells.
HaCaT derived cell line KeratinoSens were dispensed at 1,500 cells/5uL/well in 1536-well white wall/solid bottom plates using a Multidrop Combi (ThermoFisher Scientific, Waltham, MA) dispenser. After the assay plates were incubated at 37 C/5% CO2 for 5 h, 23 nL of compounds dissolved in DMSO, positive controls or DMSO only was transferred to the assay plate by a pintool workstation (Kalypsys, San Diego, CA). The plates were incubated at 37 C/5% CO2 for 23 h, followed by addition of 1uL/well of CellTiter-Fluor reagent into the assay plates using a Flying Reagent Dispenser (Aurora Discovery, San Diego, CA) for cell viability readout that measures cytotoxicity. After 1 h incubation at 37 C/5% CO2 the fluorescence intensity was measured using a ViewLux (PerkinElmer, Shelton, CT) plate reader. Then 4uL/well of One-Glo were added using a Flying Reagent Dispenser. After the plates were incubated at room temperature for 30 min, the luminescence intensity in the assay plates was measured using ViewLux plate reader.

[3] = molecular target: Gonadotropin-releasing hormone receptor (Homo sapiens) (UniProt P30968); experiment: Human gonadotropin-releasing hormone receptor (GnRHR) small molecule agonists, calcium flux assay in GnRHR-HEK293 cells (AID 1920063); conditions: calcium flux fluorescence, agonist mode, hits give high values; at 57.6 µM (top of the series) unless noted; note: nearly all actives have a fitted effect of over 35% in size
Outline: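 HEK293 cells stably expressing human GnRHR were dye-loaded for 1 h at 37 C. Compound was added in agonist mode and fluorescence (Ex/Em 480/540) recorded kinetically for 3 min. Fifteen concentrations, triplicates.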

[4] = molecular target: KiSS-1 receptor (Homo sapiens) (UniProt Q969F8); experiment: Human kisspeptin (KISS1R) small molecule agonists, calcium flux assay in KISS1R-HEK293 cells (AID 1920064; active = well fitted curve in the direction sought with a large enough effect in the repeat runs; an effect the other way counts as inactive or inconclusive); conditions: KISS1R-HEK293, calcium flux fluorescence, agonist; at 76.8 µM (top of the series) unless noted
Outline: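 HEK293 cells stably expressing human KISS1R were loaded with calcium dye for 1 h at 37 C, then given compound; fluorescence (Ex/Em 480/540) was read kinetically for 3 min. Fifteen concentrations, triplicate.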

[5] = G protein-coupled receptor (GPCR) small molecule agonists, calcium flux assay: HEK293 wild type cell line counter screen (AID 1920065); conditions: HEK293 WT calcium flux, fluorescence, agonist mode; at 57.6 µM (top of the series) unless noted
Outline: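 Wild-type HEK293 cells plated 18 h, loaded with calcium dye 1 h at 37 C, then compounds added in agonist mode (ATP as positive control). Kinetic fluorescence Ex/Em 480/540 recorded 3 min at 1 sec intervals; 15 concentrations, triplicate.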

[6] = p53 small molecule agonists, cell-based qHTS assay with human liver microsomes (AID 1963577); conditions: HCT-116 p53RE-bla with human liver microsomes, ratio, 16 h; at 66 µM (top of the series) unless noted;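 note: p53 response element beta-lactamase reporter cells with liver microsomes plus NADPH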
Outline: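 In this qHTS, p53 response-element beta-lactamase cells receive test compound together with a microsome/NADPH activating system (0.5 mg/mL final each) and are incubated 16 h at 37 C before LiveBLAzer fluorescence detection.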

[7] = p53 small molecule agonists, cell-based qHTS assay with rat liver microsomes (AID 1963578); conditions: HCT-116 p53RE-bla, beta-lactamase ratio, 16 h; at 66 µM (top of the series) unless noted
Outline: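 Agonist mode in p53RE-bla reporter cells, with compounds co-incubated 16 h at 37 C alongside 0.5 mg/mL rat liver microsomes and 0.5 mg/mL NADPH (final), followed by a 2 h LiveBLAzer detection step.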

[8] = p53 small molecule agonists, cell-based qHTS assay with human liver microsomes: qHTS cell viability counter screen (AID 1963579); conditions: p53RE-bla HCT-116 viability, ATP luminescence, 16 h, HLM; at 66 µM (top of the series) unless noted; note: nearly all actives have a fitted effect of over 45% in size
Outline: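 Metabolically activated exposure: compounds, human liver microsomes and NADPH (0.5 mg/mL final apiece) were added to p53RE-bla cells seeded 5 h earlier, left 16 h at 37 C, and then assessed for viability by CellTiter-Glo luminescence.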

[9] = p53 small molecule agonists, cell-based qHTS assay with rat liver microsomes: qHTS cell viability counter screen (AID 1963580); conditions: p53RE-bla HCT-116 + rat microsomes, ATP viability, 16 h; at 66 µM (top of the series) unless noted; note: nearly all actives have a fitted effect of over 45% in size
Outline: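 Intracellular ATP, by CellTiter-Glo luminescence, defines viability. HCT-116 p53RE-bla cells, 4,000 per well, were compound-treated in the presence of rat liver microsomes and NADPH for 16 h at 37 C.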

[10] = p53 small molecule agonists, cell-based qHTS assay: qHTS cell viability counter screen (AID 1963581); conditions: p53RE-bla HCT-116 viability, ATP luminescence, 16 h; at 66 µM (top of the series) unless noted; note: nearly all actives have a fitted effect of over 45% in size
Outline: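 p53RE-bla HCT-116 cells, compounds added 5 h after plating and incubated 16 h at 37 C. Cytotoxicity measured in the same wells as intracellular ATP by CellTiter-Glo luminescence after 30 min at room temperature.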

[11] = p53 small molecule agonists, cell-based qHTS assay (AID 1963582; active = well fitted activation curve with a large enough effect in the signal ratio in the repeat runs, not every such curve was filed as active; the % refers to the signal ratio); conditions: HCT-116 p53RE-bla reporter, beta-lactamase FRET ratio, 16 h; at 66 µM (top of the series) unless noted
Outline: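 p53RE-bla reporter cells, compounds added in DMSO after 5 h plating, incubated 16 h at 37 C. Beta-lactamase read via 2 h room-temperature LiveBLAzer B/G FRET substrate, fluorescence intensity.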

[12] = molecular target: 5-hydroxytryptamine receptor 2A (Homo sapiens) (UniProt P28223); experiment: 5-hydroxytryptamine receptor 2A (HTR2A) small molecule antagonists, cell-based qHTS assay (AID 1963586); conditions: HTR2A-CHO cells, DOI-induced calcium flux, fluorescence; at 61.5 µM (top of the series) unless noted; note: nearly all actives have a fitted effect of over 45% in size
Outline: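 Antagonist-mode intracellular calcium assay: DOI (4 nM) added after 5 min compound pre-incubation at room temperature to dye-loaded HTR2A-CHO cells. Fluorescence followed for 3 min, sampled every second.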

[13] = molecular target: 5-hydroxytryptamine receptor 2A (Homo sapiens) (UniProt P28223); experiment: 5-hydroxytryptamine receptor 2A (HTR2A) small molecule agonists, cell-based qHTS assay (AID 1963587); conditions: HTR2A-CHO cells, calcium flux fluorescence, agonist mode; at 76.8 µM (top of the series) unless noted; note: nearly all actives have a fitted effect of over 30% in size
Outline: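 Kinetic calcium-flux fluorescence (2 min, 1 sec intervals) after compound addition in agonist mode. HTR2A-CHO cells were cultured 18 h, then dye-loaded 1 h at 37 C.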

[14] = molecular target: Muscarinic acetylcholine receptor M1 (Homo sapiens) (UniProt P11229); experiment: Cholinergic receptor muscarinic 1 (CHRM1) small molecule agonists, cell-based qHTS assay (AID 1963589); conditions: CHRM1-CHO cells, agonist mode, calcium flux fluorescence; at 76.8 µM (top of the series) unless noted; note: nearly all actives have a fitted effect of over 35% in size
Outline: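 CHO cells stably expressing human CHRM1 were loaded with calcium dye for 1 h at 37 C, then compound was added in agonist mode. Intracellular calcium fluorescence was followed kinetically at 1 s intervals. Fifteen concentrations were tested in three independent runs.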

[15] = cAMP Responsive Elements (CRE) small molecule agonists, cell-based qHTS assay (AID 1963590); conditions: CRE-bla HEK293T, beta-lactamase FRET ratio, 3 h; at 92.4 µM (top of the series) unless noted
Outline: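 CRE-bla HEK 293T cells, 2,000/well in DMEM with 10% dialyzed FBS and 25 mM HEPES, pre-incubated 18 h at 37 C, then exposed to compound 3 h at 37 C. Beta-lactamase reporter read with LiveBLAzer B/G FRET substrate after 2 h at room temperature.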

[16] = cAMP Responsive Elements (CRE) small molecule antagonists, cell-based qHTS assay (AID 1963591; active = well fitted inhibition curve with a large enough effect in the signal ratio in the repeat runs, not every such curve was filed as active; the % refers to the signal ratio); conditions: CRE-bla HEK293T, beta-lactamase FRET ratio; at 92.4 µM (top of the series) unless noted
Outline: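 CRE-bla HEK293T cells plated 18 h, then given compound plus NKH477 at 0.25 uM final for 3 h at 37C. Beta-lactamase reporter read with LiveBLAzer B/G FRET substrate after 2 h at room temperature.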

[17] = molecular target: Beta-2 adrenergic receptor (Homo sapiens) (UniProt P07550); experiment: Adrenergic beta2 receptor (ADRB2) small molecule antagonists, cell-based qHTS assay (AID 1963592); conditions: CHO-ADRB2 cells, isoproterenol-stimulated cAMP HTRF ratio, 0.5 h; at 92.4 µM (top of the series) unless noted; note: nearly all actives have a fitted effect of over 50% in size
Outline: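 Cells (CHO, stable ADRB2 overexpression) incubated 18-20hr at 37C; compounds added from DMSO; agonist mix (1nM isoproterenol, 100uM IBMX, 25uM Ro-20-1724) added; 0.5hr RT; d2-cAMP and anti-cAMP-cryptate added; 1hr RT; 665/615 nm read.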

[18] = molecular target: D(2) dopamine receptor (Homo sapiens) (UniProt P14416); experiment: Dopamine D2 receptor (DRD2) small molecule agonists, cell-based qHTS assay (AID 1963594); conditions: HEK293-DRD2 cAMP HTRF, agonist mode, 30 min; at 92.4 µM (top of the series) unless noted; note: nearly all actives have a fitted effect of over 35% in size
Outline: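 cAMP accumulation in DRD2-HEK293 cells measured by HTRF after 1 h detection; compounds added 10 min before NKH477 (200nM […]) forskolin-analogue stimulation, 30 min at room temperature, with Ro20-1724 present at 0.1 mM final.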

[19] = molecular target: D(2) dopamine receptor (Homo sapiens) (UniProt P14416); experiment: Dopamine D2 receptor (DRD2) small molecule antagonists, cell-based qHTS assay (AID 1963595; active = well fitted inhibition curve with a large enough effect in the signal ratio in the repeat runs, with a control signal flat; the % refers to the signal ratio); conditions: HEK293-DRD2 cAMP HTRF antagonist mode; at 92.4 µM (top of the series) unless noted
Outline: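 Readout: HTRF cAMP, cAMP-d2 competing with cellular cAMP for anti-cAMP cryptate, read after 1 h. Cells: DRD2-HEK293. Conditions: 0.1 mM Ro20-1724, 12 nM quinpirole, 200 nM NKH477, 30 min RT.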
% is set by controls: 0 for no effect and ±100 for the full control effect.

CCC(=O)N(c1ccccc1)C1CCNCC1
inactive: activity change, negative = cytotoxicity [1] 0.818% [at 42.5 µM] | activity, positive = activation [2] -0.381% [at 42.5 µM] | activity change [3] 0.696% [at 26.4 µM] | activation [4] -0.982% [at 35.3 µM] | activation [5] -0.0116% [at 26.5 µM] | activation [6] -0.506% [at 30.3 µM] | activation [7] -0.889% [at 30.3 µM] | activity change, negative = cytotoxicity [8] -0.0139% [at 30.3 µM] | activity change, negative = cytotoxicity [9] 1.41% [at 30.3 µM] | activity change, negative = cytotoxicity [10] -8.35% [at 30.3 µM] | activation [11] -0.21% [at 30.3 µM] | activity, negative = inhibition [12] -4.29% [at 28.5 µM] | activation [13] -13% [at 35.6 µM] | activation [14] -0.507% [at 35.3 µM] | activation [15] -0.618% [at 42.5 µM] | activity change, negative = inhibition [16] 3% [at 42.4 µM] | activity change, negative = inhibition [17] -4.61% [at 42.5 µM] | activation [18] -0.98% [at 42.5 µM] | activity change, negative = inhibition [19] 3.17% [at 42.5 µM]
